# Experimental melting point values from OPERA 2.9

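These are experimental values that the OPERA curators gathered from public databases to train and test their QSAR models. One number stands for a compound and property, with no spread given. Method and conditions are not stated for these values. Where a salt, mixture or single isomer is drawn, the source does not say that exactly this form was tested. Unmarked limits or estimates from the upstream databases cannot be ruled out.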

Melting points are in °C. "n/a" marks a cell with nothing listed here.

| compound | name | MP (°C) |
|---|---|---|
| O=C(O)CCNS(=O)(=O)c1ccc(Cl)cc1 | N-(4-Chlorobenzene-1-sulfonyl)-beta-alanine | 157 |
| O=C(O)c1ccc(S(=O)(=O)C(F)F)cc1 | 4-(Difluoromethanesulfonyl)benzoic acid | 233 |
| O=C(O)c1cccc(NS(=O)(=O)c2cc(Cl)ccc2Cl)c1 | 3-[(2,5-Dichlorobenzene-1-sulfonyl)amino]benzoic acid | 218 |
| Cc1cc(S(N)(=O)=O)cc(N)c1C | 3-amino-4,5-dimethylbenzenesulfonamide | 160 |
| CC1=NN(c2cccc(S(=O)(=O)[O-])c2)C(=O)C1/N=N/c1cc(Cl)c(C)cc1S(=O)(=O)[O-].[Ca+2] (stereo partly drawn) | C.I. Pigment Yellow 191 | 320 |
| CCOC(=O)CNC(=O)[C@@H]1C[C@H](C)CC[C@H]1C(C)C | n/a | 81 |
| O=C(O)c1ccc(CS(=O)(=O)c2ccccc2)o1 | 5-[(phenylsulfonyl)methyl]-2-furoic acid | 181 |
| CCCCOc1ccc(/C=N/c2ccc(CC)cc2)cc1 | 4-Butyloxybenzal-4'-ethylaniline | 40.5 |
| O=C(O)CCc1nc(-c2ccc(Cl)cc2)no1 | 3-[3-(4-chlorophenyl)-1,2,4-oxadiazol-5-yl]propanoic acid | 153 |
| COc1ccc(/N=N/c2ccc(/N=N/c3cccc(S(=O)(=O)[O-])c3)cc2OC)cc1.[Na+] | n/a | 282 |
| COc1ccc(C(=O)CCC(=O)O)c2ccccc12 | Menbutone | 172 |
| CC(=O)N1CCCC(C(=O)O)C1 (configuration not stated) | 1-Acetyl-3-piperidinecarboxylic acid | 130 |
| NNc1ncccn1 | 2-hydrazinopyrimidine | 91 |
| Nc1cc(=O)cc[nH]1 | 2-amino-4-hydroxypyridine | 157 |
| C=C(C#N)C(=O)OCCCC | Butyl 2-cyanoacrylate | -21 |
| O=C1COCCO1 | Dioxanone | 28.2 |
| Cc1ccc(C)c(-c2n[nH]c(=O)c3ccccc23)c1 | 4-(2,5-Dimethylphenyl)phthalazin-1(2H)-one | 217 |
| O=C(O)COc1cccc(C(F)(F)F)c1 | [3-(trifluoromethyl)phenoxy]acetic acid | 86 |
| CCNC(=O)c1cccc(N)c1 | 3-amino-N-ethylbenzamide | 70 |
| O=C(O)C#Cc1ccccc1Cl | 3-(2-Chlorophenyl)-2-propynoic acid | 133.2 |
| Cn1c(=O)[nH]c2ncn(C)c2c1=O | 1,7-Dimethylxanthine | 351.5 |
| c1cc2c3c(c1)ccc1ccc4cccc-2c4c13 | Benzo[ghi]fluoranthene | 149 |
| CC12CCC3C(CCC4C(C)(C)CCCC43C)(CO1)O2 (configuration not stated) | n/a | 117 |
| CCCCCCCCCCCCCCCCCCCCCC(=O)NCCCN(C)C | N-(3-(Dimethylamino)propyl)docosanamide | 79.4 |
| Cc1ccc(OCC(=O)O)c(Br)c1 | (2-bromo-4-methylphenoxy)acetic acid | 131 |
| COc1ccccc1-c1noc(CCl)n1 | 5-(chloromethyl)-3-(2-methoxyphenyl)-1,2,4-oxadiazole | 62 |
| Clc1cc(Cl)c(Cl)c(-c2c(Cl)c(Cl)cc(Cl)c2Cl)c1Cl | 2,2',3,3',5,5',6,6'-Octachlorobiphenyl | 160 |
| CCCCCCCCCCCCCCCCCCN(CCO)CCCN(CCO)CCO.F.F | n/a | 12.7 |
| N#Cc1ccc2nc(N)sc2c1 | 2-aminobenzothiazole-6-carbonitrile | 137.5 |
| FC(F)(F)C(F)(F)C(F)(F)C(F)(F)C(F)(F)C(F)(F)CCS | 2-(Perfluorohexyl)ethanethiol | -26 |
| Clc1ccc(Oc2c(Cl)c(Cl)cc(Cl)c2Cl)c(Cl)c1Cl | 2,2',3,3',4,5',6'-Heptachlorodiphenyl ether | 81 |
| Cc1oc(-c2ccc(Cl)cc2)nc1C(=O)O | 2-(4-chlorophenyl)-5-methyl-1,3-oxazole-4-carboxylic Acid | 236 |
| Clc1c(Cl)c(Cl)c(Oc2c(Cl)c(Cl)c(Cl)c(Cl)c2Cl)c(Cl)c1Cl | Decachlorodiphenyl ether | 221 |
| N=C(N)c1ccc(OCCCCCCOc2ccc(C(=N)N)cc2)cc1.O=S(=O)(O)CCO.O=S(=O)(O)CCO | Hexamidine diisethionate | 217 |
| CCOC(=O)c1sc2ncnc(Cl)c2c1C | ethyl 4-chloro-5-methylthieno[2,3-d]pyrimidine-6-carboxylate | 114 |
| O=C(O)C1CC(=O)N(C2CCCC2)C1 (configuration not stated) | 1-cyclopentyl-5-oxopyrrolidine-3-carboxylic acid | 137 |
| O=C1CC(c2ccccc2)=NN1c1ccccc1 | 3H-Pyrazol-3-one, 2,4-dihydro-2,5-diphenyl- | 139 |
| NCCCc1nc2ccccc2[nH]1 | 1H-Benzimidazole-2-propanamine | 211 |
| O=C(Cl)c1cc(Cl)nc2ccccc12 | 2-Chloroquinoline-4-carbonyl chloride | 86 |
| O=C(O)c1cc(-c2ccc(Br)cc2)nc2ccccc12 | 2-(4-bromophenyl)quinoline-4-carboxylic acid | 242 |
| Nc1cccc(S(=O)(=O)Nc2ccccc2)c1 | Benzenesulfonamide, 3-amino-N-phenyl- | 128 |
| Clc1nc(CSc2ccccc2)nc2sc3c(c12)CCCC3 | n/a | 56 |
| CCCCOC(=O)c1ccc(C(=O)OCCCC)cc1 | 1,4-Dibutyl benzene-1,4-dicarboxylate | 14.7 |
| Cc1c(N)cccc1C(N)=O | 3-Amino-2-methylbenzamide | 174 |
| CC(C)(C)OC(=O)NC1CCN(CC(=O)O)CC1 | {4-[(tert-Butoxycarbonyl)amino]piperidin-1-yl}acetic acid | 205 |
| O=[N+]([O-])c1ccc(-c2nnc(CCl)o2)cc1 | 2-(Chloromethyl)-5-(4-nitrophenyl)-1,3,4-oxadiazole | 129 |
| S=c1[nH]nc(-c2ccncc2)n1-c1ccccc1 | 4-Phenyl-5-pyridin-4-yl-4H-[1,2,4]triazole-3-thiol | 291 |
| O=C(Nc1ccccc1)Nc1ccc(C(=O)O)cc1 | 4-[(anilinocarbonyl)amino]benzoic acid | 261 |
| C#CC1(C)CCCC(C)(C)O1 (configuration not stated) | 2H-Pyran, 2-ethynyltetrahydro-2,6,6-trimethyl- | 50 |

Again, the 8 entries with the lowest MP:

| compound | name | MP (°C) |
|---|---|---|
| FC(F)(F)C(F)(F)C(F)(F)C(F)(F)C(F)(F)C(F)(F)CCS | 2-(Perfluorohexyl)ethanethiol | -26 |
| C=C(C#N)C(=O)OCCCC | Butyl 2-cyanoacrylate | -21 |
| CCCCCCCCCCCCCCCCCCN(CCO)CCCN(CCO)CCO.F.F | n/a | 12.7 |
| CCCCOC(=O)c1ccc(C(=O)OCCCC)cc1 | 1,4-Dibutyl benzene-1,4-dicarboxylate | 14.7 |
| O=C1COCCO1 | Dioxanone | 28.2 |
| CCCCOc1ccc(/C=N/c2ccc(CC)cc2)cc1 | 4-Butyloxybenzal-4'-ethylaniline | 40.5 |
| C#CC1(C)CCCC(C)(C)O1 (configuration not stated) | 2H-Pyran, 2-ethynyltetrahydro-2,6,6-trimethyl- | 50 |
| Clc1nc(CSc2ccccc2)nc2sc3c(c12)CCCC3 | n/a | 56 |

Data: OPERA 2.9 data sets, kmansouri/OPERA on GitHub.